Reference: PubChem BioAssay AID1865 (National Center for Advancing Translational Sciences (NCATS), 2009)
This is a selection; strong and weak results do not stand in their true shares. Some of these compounds have results that are not shown, active ones among them. Active and inactive are the calls of the source. Calls follow the shape of the dose curve; as a rule, active = well fitted activation curve with a large enough effect; inconclusive = small, poorly fitted or top-dose-only effect; inactive = flat fitted curve, though single readings scatter.

Experiment: Quantitative High-Throughput Screen for Regulators of Epigenetic Control; also: % of control where 0% means no effect; nearly all actives have a fitted effect of over 60% in size
Details: murine LDR cells, GFP reporter derepression, 30 h; at 53.9 µM (top of the series)
From the text: NIH Molecular Libraries Screening Centers Network [MLPCN] NIH Chemical Genomics Center [NCGC] MLSCN Grant: 1 X01 MH079860-01 Assay Provider: Elisabeth D. Martinez, University of Texas SW Medical Center NCGC Assay Overview: The Locus Derepression (LDR) assay detects the derepression or induction of a GFP reporter that is stably integrated in a genomic region of murine cells that is presumably silenced. Transcription of the GFP reporter is controlled by a CMV promoter, which normally is constitutively active. However, this cell line, termed LDR, was selected for lack of constitutive production of GFP. GFP production can be induced by incubating the cells with histone deacetylase or DNA methyltransferase inhibitors (Martinez et al., 2006). Compounds that derepress or induce this reporter locus are identified by enumerating GFP positive cells using a laser-scanning microplate cytometer (Auld et al., 2006). This assay was screened against the MLSMR earlier (AID 597; (Johnson et al., 2008) and has been rescreened here against the expanded collection.
NCGC Assay Protocol Summary: Three hundred LDR cells in 5 uL per well were dispensed into black, clear-bottom 1536-well plates. Twenty-three nL compound was transferred to the assay plate and cells were incubated 30 hours at 37 C. Medium was removed, cells were washed two times with PBS, and GFP-positive cells were enumerated as fluorescent objects between the sizes of 20 to 120 um width and depth using an Acumen Explorer. References Auld, DS, Johnson, RL, Zhang, YQ, Veith, H, Jadhav, A, Yasgar, A, Simeonov, A, Zheng, W, Martinez, ED, Westwick, JK, Austin, CP, Inglese, J (2006). Fluorescent protein-based cellular assays analyzed by laser-scanning microplate cytometry in 1536-well plate format. Methods Enzymol 414: 566-89. Johnson, RL, Huang, W, Jadhav, A, Austin, CP, Inglese, J, Martinez, ED (2008). A quantitative high-throughput screen identifies potential epigenetic modulators of gene expression. Anal Biochem 375: 237-48. Martinez, ED, Dull, AB, Beutler, JA, Hager, GL (2006). High-content fluorescence-based screening for epigenetic modulators. Methods Enzymol 414: 21-36.

| Structure (SMILES) | GFP activation |
| --- | --- |
| O=C(NCC1(N2CCCCC2)CCCCC1)c1cc([N+](=O)[O-])ccc1Cl | inactive: -0.0337% |
| CN(C)C1(CNC(=O)c2ccccc2F)CCCCC1 | inactive: -1.61% |
| CC(C)N1C(=O)CC2(CCN(CCOC(=O)C(O)(c3ccccc3)c3ccccc3)CC2)C1=O | inactive: -0.813% |
| CN(C)C1(CNC(=O)c2cccc(Cl)c2)CCCCC1 | inactive: 0% |
| CCN(CC)CC(C)C(C)OC(=O)C(O)(c1ccccc1)c1ccccc1 (configuration not stated) | inactive: -0.452% |
| CCCCOc1ccccc1C(=O)NCC1(N(C)C)CCCCC1 | inactive: -0.78% |
| CN(C)C1CCCC1OC(=O)C(O)(c1ccccc1)c1ccccc1 (configuration not stated) | inactive: -0.99% |
| Cc1ccccc1C(=O)NCC1(N2CCCCC2)CCCCC1 | inactive: 2.6% |
| CN(C)C1(CNC(=O)c2ccccc2[N+](=O)[O-])CCCCC1 | inactive: 0% |
| CCN1CCCC(OC(=O)C2(O)c3ccccc3C=Cc3ccccc32)C1 (configuration not stated) | inactive: -0.956% |
| CCOc1cccc(C(=O)NCC2(N(C)C)CCCCC2)c1 | inactive: -0.549% |
| C=CCN1CCN(CCOC(=O)C(O)(c2ccccc2)c2ccccc2)CC1 | inactive: 1.05% |
| COc1ccc(C(=O)NCC2(N(C)C)CCCCC2)cc1Cl | inactive: -3.23% |
| COc1cccc(C(=O)NCC2(N3CCCCC3)CCCCC2)c1 | inactive: -1.5% |
| CC(C)COc1ccc(C(=O)NCC2(N(C)C)CCCCC2)cc1 | inactive: -3.23% |
| O=C(OC1CN2CCC1CC2)C(CO)(c1ccccc1)c1ccccc1 (configuration not stated) | inactive: -0.848% |
| COc1cccc(C(=O)NCC2(N3CCOCC3)CCCCC2)c1 | inactive: -3.23% |
| CN(C)c1cccc(C(=O)NCC2(N(C)C)CCCCC2)c1 | inactive: 3.98% |
| CC(C)Oc1ccc(C(=O)NCC2(N(C)C)CCCCC2)cc1 | inactive: 0% |
| COc1ccc(Br)c(C(=O)NCC2(N3CCCCC3)CCCCC2)c1 | inactive: 5.8% |
| Cc1cccc(C(=O)NCC2(N(C)C)CCCCC2)c1 | inactive: 2.45% |
| COc1cc(C(=O)NCC2(N(C)C)CCCCC2)cc(OC)c1OC | inactive: -2.16% |
